# Screening results deposited in PubChem by Broad Institute.
# Most compounds without a hit are left out; they make up all but 1.5% or so of the library.
# HIV Env fusion: blocks HIV Env-driven cell-cell fusion; HeLa-JRFL Env/CEM21 cell fusion, luciferase; inhibition, % at 12.3 µM; 360,000 compounds, 1.1% hits; AID 651610;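 active = mean replicate inhibition score of at least 50 and every replicate individually at or above 50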;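 note: 0% = plate neutral controls and 100% = maraviroc near 300 nM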
# Cneo AK release: causes C. neoformans cell lysis; adenylate kinase release luminescence, 4 h; normalised: neutral wells 0, clomiphene wells 100; lysis activity, % at 15 µM; 360,000 compounds, 0.2% hits; AID 651654;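 active = mean lysis activity across replicates of at least 80%, whatever share of replicates individually reach that level; inactive = mean lysis activity below 80%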
#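 Signal: Adenylate kinase release luminescence | Assay system: Log-phase Cryptococcus neoformans yeast cells | Input: Cells at 5 × 10^6 per mL | Buffer or medium: Fresh YPD growth medium | Compound: Single dose | Schedule: Static 4 h at 37 °C with compound, 1 h detection | Controls: Clomiphene | Read-out: Luminescence rise reflecting yeast cell lysis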
# FN deposit inh: fibronectin deposition inhibition. AH1F fibroblasts, Alexa488-fibronectin deposition fluorescence, overnight. inhibition, % at 12.6 µM. 350,000 compounds, 0.086% hits;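 active = mean inhibition across replicates of 30% or more, regardless of how many single replicates reach that level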;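 note: positive control wells lacked labelled fibronectin entirely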
#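 test system = AH1F fibroblasts assembling fluorescent fibronectin matrix | quantity = 10000 AH1F cells per well | buffer or medium = DMEM plus 2% serum, read in PBS | doses = single dose, pinned | incubation = 1 h cell attachment, overnight exposure to compound and label | detection = fluorescence at 485 nm excitation, 525 nm emission | read-out basis = inhibition from reduced deposited-fibronectin fluorescence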
# PGC1a acetyl inh: modulators of PGC1a acetylation | U2OS PGC1a acetylation, AlphaScreen anti-acetyl-lysine; with virally co-expressed GCN5 acetyltransferase | inhibition, % at 15.6 µM | 350,000 compounds, 0.17% hits | AID 651687;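 active = every replicate shows inhibition of at least 40%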;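 note: 0% = neutral control wells and 100% = positive control wells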
# miR-122 sensor: blocks miR-122 activity in Huh7 sensor cells | Huh7 miR-122 Renilla luciferase sensor, 48 h; neutral wells = 0, positive control = 100 | 340,000 compounds, 0.3% hits | AID 602342 | activation (reporter increase), % at 12.5 µM;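 active = mean replicate activation score at least 90 and every replicate individually at or above 90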;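 note: higher luciferase means less miR-122 activity so hits act as miR-122 inhibitors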
# UUG fidelity: modulators of start codon recognition fidelity in yeast | S. cerevisiae UUG-firefly luciferase reporter, luminescence/redox ratio | activity score, % at 18.7 µM | 350,000 tested, 0.13% active;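 active = replicate mean at a twofold rise or more, about +100% in these data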;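 also: firefly luciferase made from a UUG start codon reports start codon fidelity; reporter light over untreated wells divided by growth signal over untreated wells; some hits fall short of that in this replicate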
# * hit, by the source's call; / = not tested or not shown; [ ] = remark or other dose.
# Start of the listing, in advance:
no. | SMILES | PGC1a acetyl inh | UUG fidelity | FN deposit inh
1 | COc1ccccc1S(=O)(=O)Cc1ccc(C(=O)N2CCN(c3ccccc3)CC2)o1 | 8 | 15 | /
2 | FC(F)C(F)(F)Oc1cccc(Nc2nccn3c(-c4cc(C(F)(F)F)cc(C(F)(F)F)c4)cnc23)c1 | / | -22 | 2
3 | CCN(CC)S(=O)(=O)c1cc(C(=O)N(C)CC(=O)Nc2ccc(Cl)cc2)ccc1Cl | / | / | 0
4 | CC(=O)c1ccc(OCCCC(=O)Nc2cc(S(=O)(=O)N(C)C)ccc2C)cc1 | / | / | 4

no. | miR-122 sensor | Cneo AK release | HIV Env fusion
1 | 15 | 4 | -15
2 | 3 | -1 | -35
3 | 168* | / | 22
4 | / | / | 18

# The whole of this part, from the start:
no. | SMILES | PGC1a acetyl inh | UUG fidelity | FN deposit inh
1 | COc1ccccc1S(=O)(=O)Cc1ccc(C(=O)N2CCN(c3ccccc3)CC2)o1 | 8 | 15 | /
2 | FC(F)C(F)(F)Oc1cccc(Nc2nccn3c(-c4cc(C(F)(F)F)cc(C(F)(F)F)c4)cnc23)c1 | / | -22 | 2
3 | CCN(CC)S(=O)(=O)c1cc(C(=O)N(C)CC(=O)Nc2ccc(Cl)cc2)ccc1Cl | / | / | 0
4 | CC(=O)c1ccc(OCCCC(=O)Nc2cc(S(=O)(=O)N(C)C)ccc2C)cc1 | / | / | 4
5 | Cc1ccc(S(=O)(=O)N(C)C)cc1NC(=O)C(C)N(C)CCOc1ccc(Cl)cc1 (stereo not given) | / | -10 | 0
6 | CCOc1ccc(C(C)=O)cc1COC(=O)c1ccccc1C(=O)N(C)Cc1ccccc1 | -8 | -2 | -3
7 | O=C(c1cccs1)N1CCN(c2nc3ccccc3s2)CC1 | / | -18 | -3
8 | O=C(c1cc2sccc2n1Cc1ccc(F)cc1)N1CCN(c2nc3ccccc3s2)CC1 | -4 | -8 | 8

no. | miR-122 sensor | Cneo AK release | HIV Env fusion
1 | 15 | 4 | -15
2 | 3 | -1 | -35
3 | 168* | / | 22
4 | / | / | 18
5 | / | 0 | 69*
6 | 41 | -3 | 98*
7 | / | 1 | -13
8 | 1 | 9 | 87*

# More records follow:
no. | SMILES | PGC1a acetyl inh | UUG fidelity | FN deposit inh
9 | COCCNC(=O)C1CCN(C(=O)c2cc3sccc3n2Cc2ccc(F)cc2)CC1 | / | / | 14
10 | Cn1c(C(=O)N2CCN(c3nc4ccccc4s3)CC2)cc2sccc21 | 4 | 0 | -3
11 | O=C(c1ccc(Cl)s1)N1CCN(c2nc3ccccc3s2)CC1 | 4 | -14 | -1
12 | CCN1C(=O)CC(C(=O)OC)=C1C | / | / | 3
13 | CCCNC(=O)NC[C@H]1[C@@H](c2ccc(C3=CCCC3)cc2)[C@H](CO)N1C(=O)CC | -7 | 8 | -12
14 | CCC(=O)N1[C@H](CN(C)C(C)=O)[C@H](c2ccc(C3=CCCCC3)cc2)[C@@H]1CO | / | / | -13
15 | CCC(=O)N1[C@H](CO)[C@@H](c2ccc(-c3cccnc3)cc2)[C@@H]1CN(C)C(C)=O | -9 | -5 | /
16 | CCCNC(=O)NC[C@@H]1[C@@H](c2ccc(C3=CCCC3)cc2)[C@@H](CO)N1C(=O)CC | 4 | 14 | -8

no. | miR-122 sensor | Cneo AK release | HIV Env fusion
9 | / | / | 36
10 | 2 | 5 | 71*
11 | 5 | 0 | 77*
12 | / | / | 0
13 | 36[16.7 µM] | -7 | /
14 | / | / | /
15 | -21[16.7 µM] | 104* | /
16 | 143*[16.7 µM] | -3 | /

# Other compounds follow.
no. | SMILES | PGC1a acetyl inh | UUG fidelity | FN deposit inh
17 | CCC(=O)N1[C@H](CN(C)C(C)=O)[C@@H](c2ccc(C3=CCCCC3)cc2)[C@@H]1CO | -13 | 8 | -14
18 | CC(=O)N(C)C[C@H]1[C@@H](c2ccc(-c3ccccc3)cc2)[C@@H](CO)N1C(=O)C1CC1 | 1 | -11 | -4
19 | CC(=O)N(C)C[C@H]1[C@H](c2ccc(-c3cccnc3)cc2)[C@@H](CO)N1C(=O)C1CC1 | 2 | 18 | 9
20 | O=C(C1CCCCC1)N1CC(=O)N2[C@@H](CO)[C@H](c3ccc(-c4ccccc4F)cc3)[C@@H]2C1 | -12 | / | 11
21 | O=C(c1cc(-c2ccc(Br)cc2)on1)N1CCOCC1 | / | -36 | -3
22 | O=[N+]([O-])c1ccc2c(c1)CCO[C@@]21O[C@H](CCO)C[C@H](O)[C@H]1O | / | / | 6
23 | OCC[C@H]1C[C@H](O)[C@@H](O)[C@@]2(OCc3ccccc32)O1 | -12 | -15 | 3
24 | O=[N+]([O-])c1ccc2c(c1)CO[C@@]21O[C@H](CCO)C[C@H](O)[C@H]1O | -8 | 13 | -5

no. | miR-122 sensor | Cneo AK release | HIV Env fusion
17 | 14[16.7 µM] | 111* | /
18 | 12[16.7 µM] | -1 | /
19 | 125*[16.7 µM] | 64 | /
20 | / | / | /
21 | 0 | -3 | -47
22 | / | / | -84
23 | -6 | -2 | 1
24 | -3 | 2 | 60*

# (next part)
no. | SMILES | PGC1a acetyl inh | UUG fidelity | FN deposit inh
25 | OCC[C@@H]1C[C@@H](O)[C@H](O)[C@]2(OCc3ccccc32)O1 | -4 | -18 | 7
26 | Cc1ccc(-c2csc(NCCc3nc4cc(Cl)c(Cl)cc4n3CCCO)n2)cc1 | -13 | -22 | -6
27 | OCCOCCn1c(CCNc2nc(-c3ccc(Cl)cc3)cs2)nc2cc(Cl)c(Cl)cc21 | / | -11 | -3
28 | COc1cccc(CN(C)C(=O)CCN=C2NS(=O)(=O)c3ccccc32)c1 | -12 | -8 | 7
29 | Cc1onc(-c2ccccc2)c1C(=O)N(C)CCc1ccccn1 | 3 | -32 | 4
30 | COC(=O)c1ccc2c(=O)n(CC3CCCO3)c(SCC(=O)Nc3ccccc3Cl)nc2c1 (stereo not given) | -7 | -2 | -8
31 | COCCNC(=O)CSc1nc2ccccc2c(=O)n1CC1CCCO1 (stereo not given) | -4 | 7 | 11
32 | COC(=O)c1ccc2c(=O)n(CC3CCCO3)c(SCC(=O)Nc3ccccc3OC)nc2c1 (stereo not given) | -2 | -13 | -8

no. | miR-122 sensor | Cneo AK release | HIV Env fusion
25 | -4 | -2 | 69*
26 | 18 | -2 | 44
27 | 6 | -5 | 81*
28 | 5 | 0 | -11
29 | 6 | 1 | 18
30 | 3 | 1 | -23
31 | 286* | 0 | 25
32 | 190* | 0 | -17

# (list continues)
no. | SMILES | PGC1a acetyl inh | UUG fidelity | FN deposit inh
33 | CC1(C)Cc2ccccc2C(NNC(=O)c2cccnc2)=N1 | -10 | -18 | /
34 | Cc1nc2cc3ccccc3cc2n1C | / | / | -2
35 | Cn1c(=O)[nH]c2cc3ccccc3cc21 | -3 | -6 | 3
36 | O=C(C1CCCCC1)N1CCN(c2nc(-c3ccc(F)cc3)cs2)CC1 | -2 | / | -9
37 | CC1(C)C2CCC1(C)C(OCC[N+](C)(C)CC(=O)OC1CCCCC1)C2 (stereo not given) | -2 | 1 | -11
38 | CCOC(=O)C[N+](C)(C)CCOC1CC2CCC1(C)C2(C)C (stereo not given) | / | / | -9
39 | CC1C(=O)N2CCCc3cc(NS(C)(=O)=O)cc1c32 (stereo not given) | -2 | 0 | -1
40 | CCc1nnc(NC(=O)[C@@H](NC(=O)c2cccc(S(=O)(=O)N(CC)CC)c2)C(C)C)s1 | -1 | -1 | 4

no. | miR-122 sensor | Cneo AK release | HIV Env fusion
33 | -8 | -1 | /
34 | / | / | /
35 | -1 | -3 | 70*
36 | / | / | 17
37 | -17 | 0 | 74*
38 | / | / | -16
39 | 0 | 7 | 2
40 | -6 | 4 | 70*

# (further entries)
no. | SMILES | PGC1a acetyl inh | UUG fidelity | FN deposit inh
41 | CN(CC1CCCO1)S(=O)(=O)c1ccc(C(=O)Nc2ccc3c(c2)OCO3)cc1 (stereo not given) | / | / | /
42 | CCN(CC)S(=O)(=O)c1cccc(C(=O)Nc2nc3cc4c(cc3s2)OCCO4)c1 | -3 | -11 | /
43 | CCN(CC)S(=O)(=O)c1cccc(C(=O)NC(C(=O)NCCc2ccccn2)C(C)C)c1 (stereo not given) | -11 | 1 | -4
44 | CN(CC1CCCO1)S(=O)(=O)c1ccc(C(=O)Nc2nc3cc4c(cc3s2)OCO4)cc1 (stereo not given) | / | -9 | /
45 | CC(C)CNC(=O)c1ccccc1NC(=O)c1ccccc1N(C)S(=O)(=O)c1ccccc1 | 4 | 2 | -9
46 | COC(=O)c1ccccc1NC(=O)c1ccccc1N(C)S(=O)(=O)c1ccccc1 | / | -13 | -1
47 | CCCNC(=O)c1ccccc1NC(=O)c1ccccc1N(C)S(=O)(=O)c1ccccc1 | -8 | 10 | -3

no. | miR-122 sensor | Cneo AK release | HIV Env fusion
41 | / | / | 8
42 | -2 | -2 | 62*
43 | 0 | 2 | 22
44 | / | 5 | 57*
45 | 11 | 28 | 78*
46 | -4 | 2 | 13
47 | -3 | 0 | 72*
